Columns and labels:
MEFs = details: FIG. 3H
VDAC1 = VDAC1 (Homo sapiens, UniProt P21796); details: DARTS, pronase 20 minutes or more, FIG. 3B

Sequences of proteins named here, by UniProt entry; tags and fusion partners are left off.
UniProt P21796, whole entry, species assumed: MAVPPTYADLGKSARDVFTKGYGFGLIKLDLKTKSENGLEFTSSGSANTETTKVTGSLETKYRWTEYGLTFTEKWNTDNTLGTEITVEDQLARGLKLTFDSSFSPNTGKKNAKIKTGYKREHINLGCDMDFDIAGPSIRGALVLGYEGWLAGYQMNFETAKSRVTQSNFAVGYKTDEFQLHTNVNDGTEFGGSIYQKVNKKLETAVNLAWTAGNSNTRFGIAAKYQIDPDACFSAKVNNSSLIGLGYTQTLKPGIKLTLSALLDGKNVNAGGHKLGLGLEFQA

## CN[C@H]1CC[C@@H](c2ccc(Cl)c(Cl)c2)c2ccccc21 [sertraline]
MEFs; VDAC1−/− MEFs, 72nd hour, about 10 μM
  cell proliferation maintained in MEFs without VDAC1: ≥ 50%
MEFs; wild-type MEFs
  cell proliferation of wild-type MEFs: continuously inhibited
VDAC1
  stability of VDAC1 against pronase at nanomolecule concentration: not VDAC1

Reference: patent US20220202743A1, “PHARMACEUTICAL COMPOSITION FOR PREVENTING OR TREATING DEGENERATIVE BRAIN DISEASE USING AUTOPHAGY ACTIVATION” (VASTHERA CO. LTD., priority 2019, published 2022)
